Experimental data reported in ChEMBL document CHEMBL4177600, “Identification of novel PI3K inhibitors through a scaffold hopping strategy” (Bioorg Med Chem Lett, 2017).

Tests used:
[1] = target: Serine/threonine-protein kinase mTOR (Homo sapiens, UniProt P42345); experiment: Inhibition of recombinant human GST-tagged mTOR catalytic domain (1360 to 2549 residues) expressed in baculovirus expression system by AlexaFluor647-labeled kinase tracer 314 based LanthaScreen assay
PI3K p110 beta/p85 alpha = PI3K p110 beta/p85 alpha (Homo sapiens, UniProt P42338); experiment: Inhibition of p110beta/85alpha (unknown origin) using PIP2 as substrate by HTRF assay; format: protein-complex assay; conditions: read-out: Ki(app)
[2] = target: Phosphatidylinositol 4,5-bisphosphate 3-kinase catalytic subunit gamma isoform (Homo sapiens, UniProt P48736); experiment: Inhibition of recombinant full-length human N-terminal His6-tagged p110gamma expressed in baculovirus infected Sf21 insect cells using PIP2 as substrate by HTRF assay; conditions: read-out: Ki(app)

| Compound | IC50 [1] [nM] | Ki (PI3K p110 beta/p85 alpha) [nM] | Ki [2] [nM] |
| --- | --- | --- | --- |
| CS(=O)(=O)N1CCN(Cc2cn3nc(-c4cnc(N)nc4)nc(N4CCOCC4)c3n2)CC1 | 1840 | – | – |
| CS(=O)(=O)N1CCN(Cc2nc3c(N4CCOCC4)nc(-c4cnc(N)nc4)cn3n2)CC1 | 1260 | 155 | 20.7 |
